# C2C12 statin = protects C2C12 myotubes from simvastatin toxicity. ATP luminescence, 48 h; scaled: DMSO 0, geranylgeraniol control 100. rescue of ATP level, % at 7.49 µM. hit rate 0.78% among 330,000;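 active = mean ATP rescue above about 67%, or every replicate alone reaching that limit, limit read from the data, passing the limit was not always enough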;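 also: myotubes were challenged with 10 µM simvastatin during compound exposure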
# E-sel inducer = induces E-selectin expression in human endothelial cells; HUVEC E-selectin immunofluorescence imaging; normalized: neutral wells 0, TNF-alpha wells 100; hit rate 0.37% among 260,000; P16581; activation, % at 7.58 µM;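 active = mean E-selectin-positive cell signal at least 10% of the positive control, reached in at least 60% of replicates, without over 20% cell loss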
#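 assay system = HUVEC, human umbilical vein endothelial cells | input = 3,000 HUVEC seeded per well | medium = EGM-2 growth medium on 0.1% gelatin-coated wells | dosing = one compound dose added by pin transfer | signal = immunofluorescence imaging | read-out basis = % PE-positive cells | control set = TNF-alpha, DMSO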
# esBAF inh = inhibitors of esBAF chromatin remodeling in mouse ES cells; hit rate 2% among 350,000; AID 602393; Bmi1-luciferase knock-in reporter, 24 h; 100% = twice the neutral-well signal; reporter increase, % at 12.5 µM; in the data active = activation above about 40%;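 also: 0% = median of the plate's neutral control wells and 100% = double that signal; a rise in the Bmi1 reporter signal indicates esBAF inhibition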
# PglD DTNB = PglD (C. jejuni) enzyme inhibition; purified PglD enzyme, DTNB colorimetric CoA detection; inhibition, % at 12.5 µM; hit rate 0.098% among 360,000; in the data active = inhibition above about 16%, passing the limit was not always enough
# PGC1a acetyl inh = lowers PGC1a acetylation signal in U2OS cells. AlphaScreen anti-acetyl-lysine; with virally co-expressed GCN5 acetyltransferase. inhibition, % at 15.6 µM. hit rate 0.17% among 350,000. AID 651687;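 active = every replicate shows inhibition of at least 40%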;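 also: 0% = neutral control wells and 100% = positive control wells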
# UUG fidelity = alters start codon recognition fidelity in yeast | S. cerevisiae UUG-firefly luciferase reporter, luminescence/redox ratio | activity score, % at 18.7 µM | hit rate 0.13% among 350,000 | AID 602363;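 active means replicate mean at a twofold rise or more, about +100% in these data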;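 further: firefly luciferase made from a UUG start codon reports start codon fidelity; reporter light over untreated wells divided by growth signal over untreated wells; some hits fall short of that in this replicate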
# * hit, by the source's call; · = not tested or not shown. Hits are enriched below; roughly 2.8% of the tested compounds scored in any of these assays.
# Labels used below – A = C2C12 statin; B = E-sel inducer; C = esBAF inh; D = PglD DTNB; E = PGC1a acetyl inh; F = UUG fidelity
SMILES: C[C@H]1CN([C@@H](C)CO)C(=O)CCCn2nncc2CO[C@H]1CN(C)C(=O)Nc1ccc(F)cc1
  A = 1; B = 0; C = 0; D = 3; E = 5; F = 4
SMILES: C=C1C(=O)C23CCC4C(C)(C(=O)OC)CCCC4(C)C2CCC1(O)C3 (stereo not drawn)
  A = ·; B = 0; C = ·; D = ·; E = 76*; F = ·
SMILES: O=C(Nc1ccc2c(c1)OCCO2)C1CC(c2ccccc2Cl)=NO1 (stereo not drawn)
  A = -2; B = 1; C = 60*; D = -1; E = 5; F = -1
SMILES: Cc1ccc(NC(=O)c2cc(-c3ccc4c(c3)OCO4)on2)cc1C
  A = 3; B = ·; C = 6; D = -3; E = ·; F = -20
SMILES: O=C(Nc1ccc2c(c1)OCO2)c1cc(-c2cccc(O)c2)on1
  A = -4; B = 4; C = 43*; D = -4; E = ·; F = 1
SMILES: O=C(Nc1ccc2c(c1)OCO2)c1cc(-c2ccccc2Cl)on1
  A = 6; B = 1; C = 60*; D = -2; E = 4; F = -17
SMILES: O=C(Nc1ccc2c(c1)OCO2)c1cc(-c2ccc(O)cc2)on1
  A = 49; B = ·; C = 46*; D = -1; E = ·; F = -13
SMILES: O=C(Nc1ccc2c(c1)OCO2)C1CC(c2ccccc2O)=NO1 (stereo not drawn)
  A = 4; B = 0; C = 25; D = -4; E = -26; F = -11
SMILES: CN(C)C(=O)[C@H]1[C@H](CO)[C@H]2Cn3c(ccc(C4=CCCCC4)c3=O)[C@@H]1N2Cc1ccccc1F
  A = 11; B = -2; C = 3; D = 1; E = -4; F = ·
SMILES: O=C(Nc1cccnc1)c1cc(-c2ccc3c(c2)OCO3)on1
  A = -14; B = ·; C = 69*; D = -3; E = -7; F = -35
SMILES: O=C(Nc1cccc(O)c1)c1cc(-c2ccco2)on1
  A = 35; B = ·; C = 73*; D = -1; E = 10; F = -54
SMILES: O=C(Nc1ccc2c(c1)OCO2)c1cc(Cl)ccn1
  A = -2; B = 12; C = 44*; D = 4; E = 12; F = -30
SMILES: O=C(Nc1ccc2c(c1)OCO2)c1ccc(Cl)cc1Cl
  A = 1; B = 10; C = -23; D = 4; E = 0; F = -32
SMILES: CCNC(=O)c1cc2c(c(-c3cccc(-c4cccc(OC)c4)c3)n1)[C@H](CCO)N([S@@](=O)C(C)(C)C)C2
  A = -12; B = 0; C = -8; D = 9; E = -18; F = ·
SMILES: COc1cccc(-c2cccc(-c3nc(C(=O)Nc4ccc(-c5ccccc5)cc4)cc4c3[C@@H](CCO)N(S(=O)C(C)(C)C)C4)c2)c1 (stereo partly drawn)
  A = ·; B = 36*; C = ·; D = ·; E = -15; F = ·

# Part of the list above, showing only PGC1a acetyl inh.
SMILES | PGC1a acetyl inh
O=C(Nc1ccc2c(c1)OCO2)C1CC(c2ccccc2O)=NO1 (stereo not drawn) | -26
O=C(Nc1cccc(O)c1)c1cc(-c2ccco2)on1 | 10
CN(C)C(=O)[C@H]1[C@H](CO)[C@H]2Cn3c(ccc(C4=CCCCC4)c3=O)[C@@H]1N2Cc1ccccc1F | -4

# (listing goes on)
# Labels used below – A = C2C12 statin; B = E-sel inducer; C = esBAF inh; D = PglD DTNB; E = PGC1a acetyl inh; F = UUG fidelity
SMILES: CCNC(=O)c1cc2c(c(-c3cccc(-c4cccc(F)c4)c3)n1)[C@@H](CCO)N([S@](=O)C(C)(C)C)C2
  A = -8; B = 0; C = -5; D = 9; E = -7; F = ·
SMILES: CC(C)(C)S(=O)N1Cc2cc(C(=O)Nc3ccc(-c4ccccc4)cc3)nc(-c3cccc(-c4cccc(F)c4)c3)c2[C@@H]1CCO (stereo partly drawn)
  A = ·; B = 29*; C = ·; D = ·; E = -3; F = ·
SMILES: O=C(C[C@@H]1CC[C@H](NS(=O)(=O)c2ccccc2)[C@@H](CO)O1)NCCN1CCCCC1
  A = -8; B = -1; C = 2; D = 1; E = 18; F = -18
SMILES: O=C(NC(=S)Nc1ccc(Br)cn1)c1cncc(Br)c1
  A = 3; B = ·; C = 3; D = -1; E = 5; F = -13
SMILES: O=C(NC(=S)Nc1ccccn1)c1cncc(Br)c1
  A = ·; B = 26*; C = ·; D = ·; E = ·; F = ·
SMILES: O=C(COc1ccc(Br)cc1Cl)NC(=S)Nc1ccccn1
  A = 1; B = 0; C = 50*; D = 2; E = ·; F = -33
SMILES: COc1ccc2c3c([nH]c2c1)[C@@H](CO)N(S(C)(=O)=O)CC31CCN(C(=O)CN(C)C)CC1
  A = ·; B = 0; C = ·; D = ·; E = -4; F = ·
SMILES: CCOc1cccc(N2C(=O)CC(NCc3ccc(S(N)(=O)=O)cc3)C2=O)c1 (stereo not drawn)
  A = 78*; B = ·; C = -7; D = -9; E = -1; F = -1
SMILES: Cc1ccc(C2=N/C(=C\N3CCCCC3)C(=O)O2)cc1
  A = -4; B = ·; C = 36; D = -2; E = ·; F = -2
SMILES: Cc1ccc(C2=N/C(=C/N3CCOCC3)C(=O)O2)cc1
  A = 5; B = ·; C = 52*; D = 4; E = -4; F = -3
SMILES: C[C@H]1CN([C@@H](C)CO)S(=O)(=O)c2ccc(-c3ccncc3)cc2O[C@@H]1CN(C)Cc1ccncc1
  A = -71; B = 0; C = -9; D = ·; E = 13; F = -12
SMILES: C[C@@H]1CCCCO[C@@H](CN(C)S(=O)(=O)c2cccs2)[C@@H](C)CN([C@@H](C)CO)C(=O)c2cc(NC(=O)c3ccccc3)ccc2O1
  A = ·; B = 2; C = -4; D = 1; E = 3; F = 0
SMILES: CC(C)(C)c1ccc(-c2cc(-c3ccccc3O)[nH]n2)cc1
  A = -12; B = ·; C = -32; D = 5; E = -2; F = -47
SMILES: Oc1ccccc1-c1cc(-c2cccc(F)c2)n[nH]1
  A = 8; B = ·; C = 45*; D = 2; E = 4; F = -51
SMILES: C[C@@H]1CN([C@H](C)CO)C(=O)c2cc(NC(=O)Cc3cn(C)c4ccccc34)ccc2O[C@H]1CN(C)Cc1ccc2c(c1)OCO2
  A = 14; B = 1; C = -4; D = 10; E = -4; F = 8

# Labels used below – A = C2C12 statin; B = E-sel inducer; C = esBAF inh; D = PglD DTNB; E = PGC1a acetyl inh; F = UUG fidelity
SMILES: C[C@@H]1CN([C@H](C)CO)C(=O)c2cc(NC(=O)Cc3cn(C)c4ccccc34)ccc2O[C@@H]1CN(C)Cc1ccc(Cl)c(Cl)c1
  A = 48; B = 3; C = 2; D = 8; E = -3; F = 20
SMILES: C[C@@H]1CN([C@H](C)CO)C(=O)c2cc(NC(=O)Cc3cn(C)c4ccccc34)ccc2O[C@H]1CN(C)Cc1ccc(Cl)c(Cl)c1
  A = 38; B = 51*; C = -2; D = 0; E = 1; F = 9
SMILES: C[C@H](CO)N1C[C@H](C)[C@H](CN(C)Cc2ccc3c(c2)OCO3)Oc2ccc(NC(=O)Cc3cn(C)c4ccccc34)cc2C1=O
  A = 44; B = 43*; C = -6; D = 2; E = 2; F = 9
SMILES: COc1cccc(C#Cc2ccc([C@H]3[C@@H](CO)N4C(=O)CN(C(C)=O)C[C@H]34)cc2)c1
  A = ·; B = 0; C = ·; D = ·; E = -11; F = ·
SMILES: O=C(NCC[C@@H]1CC[C@H](NC(=O)C2CCCCC2)[C@@H](CO)O1)c1cc(Cl)cc(Cl)c1
  A = 0; B = 1; C = 11; D = 6; E = -9; F = 6
SMILES: CCC(NC(=O)c1cc(COc2ccc(Cl)cc2OC)on1)c1ccncc1 (stereo not drawn)
  A = 9; B = ·; C = 68*; D = 0; E = ·; F = 11
SMILES: CCC(NC(=O)c1cc(COc2ccc(OC)cc2Cl)on1)c1ccncc1 (stereo not drawn)
  A = 6; B = 0; C = 47*; D = 2; E = 2; F = -12
SMILES: COc1cc(Cl)ccc1OCc1cc(C(=O)NC(C)Cc2cnccn2)no1 (stereo not drawn)
  A = 0; B = 1; C = 67*; D = -1; E = ·; F = -4
SMILES: COc1ccc(OCc2cc(C(=O)NC(C)c3nc(C)cs3)no2)c(Cl)c1 (stereo not drawn)
  A = 5; B = 0; C = 61*; D = 0; E = -3; F = -8
SMILES: CCOC(=O)CC(NC(=O)c1cc2cccc(OC)c2oc1=O)c1ccc(OC)cc1 (stereo not drawn)
  A = 3; B = 0; C = 50*; D = -6; E = 1; F = 6
SMILES: CC(=O)N1[C@@H](CO)[C@@H](c2ccccc2)C12CN(C(=O)Cc1ccccc1)C2
  A = ·; B = 0; C = ·; D = ·; E = 0; F = ·
SMILES: COc1ccccc1C#Cc1ccc2c(c1)O[C@@H](CN(C)Cc1ccccc1)[C@H](C)CN([C@H](C)CO)S2(=O)=O
  A = -28; B = -1; C = -4; D = 2; E = 39; F = 4
SMILES: CCOc1ccc(CNn2nnnc2N)cc1
  A = 119*; B = ·; C = -6; D = -5; E = -1; F = -23

# Assay outcomes: PubChem, Broad Institute
